Results: patent publication US9629855B2, “Pharmaceutical composition for treatment of eye pain, containing PGE2 synthesis inhibitor” (INDUSTRY-ACADEMIC COOPERATION FOUNDATION, YONSEI UNIVERSITY, priority 2011, dated 2017)

Test system: patients having an ocular pain symptom
Test: Number of eye blinks after intraocular administration of selective COX2 inhibitors to ocular pain patients
Type: in vivo, human
Settings: control group = Diclofenac

In the case of Cc1ccc(-c2cc(C(F)(F)F)nn2-c2ccc(S(N)(=O)=O)cc2)cc1 [Celecoxib], the “Number of eye blinks of treated group (n = 3)” value is reported as 17.
